Measurements from patent publication US20120058499.

Target: Ub(1-76)-aminoluciferin

B1: USP7 (ubiquitin specific peptidase 7) (protein)
chain: MNHQQQQQQQKAGEQQLSEPEDMEMEAGDTDDPPRITQNPVINGNVALSDGHNTAEEDMEDDTSWRSEATFQFTVERFSRLSESVLSPPCFVRNLPWKIMVMPRFYPDRPHQKSVGFFLQCNAESDSTSWSCHAQAVLKIINYRDDEKSFSRRISHLFFHKENDWGFSNFMAWSEVTDPEKGFIDDDKVTFEVFVQADAPHGVAWDSKKHTGYVGLKNQGATCYMNSLLQTLFFTNQLRKAVYMMPTEGDDSSKSVPLALQRVFYELQHSDKPVGTKKLTKSFGWETLDSFMQHDVQELCRVLLDNVENKMKGTCVEGTIPKLFRGKMVSYIQCKEVDYRSDRREDYYDIQLSIKGKKNIFESFVDYVAVEQLDGDNKYDAGEHGLQEAEKGVKFLTLPPVLHLQLMRFMYDPQTDQNIKINDRFEFPEQLPLDEFLQKTDPKDPANYILHAVLVHSGDNHGGHYVVYLNPKGDGKWCKFDDDVVSRCTKEEAIEHNYGGHDDDLSVRHCTNAYMLVYIRESKLSEVLQAVTDHDIPQQLVERLQEEKRIEAQKRKERQEAHLYMQVQIVAEDQFCGHQGNDMYDEEKVKYTVFKVLKNSSLAEFVQSLSQTMGFPQDQIRLWPMQARSNGTKRPAMLDNEADGNKTMIELSDNENPWTIFLETVDPELAASGATLPKFDKDHDVMLFLKMYDPKTRSLNYCGHIYTPISCKIRDLLPVMCDRAGFIQDTSLILYEEVKPNLTERIQDYDVSLDKALDELMDGDIIVFQKDDPENDNSELPTAKEYFRDLYHRVDVIFCDKTIPNDPGFVVTLSNRMNYFQVAKTVAQRLNTDPMLLQFFKSQGYRDGPGNPLRHNYEGTLRDLLQFFKPRQPKKLYYQQLKMKITDFENRRSFKCIWLNSQFREEEITLYPDKHGCVRDLLEECKKAVELGEKASGKLRLLEIVSYKIIGVHQEDELLECLSPATSRTFRIEEIPLDQVDIDKENEMLVTVAHFHKEVFGTFGIPFLLRIHQGEHFREVMKRIQSLLDIQEKEFEKFKFAIVMMGRHQYINEDEYEVNLKDFEPQPGNMSHPRPWLGLDHFNKAPKRSRYTYLEKAIKIHN
S/B against the S/B for both Ub-AMC and Ub-Rhodamine110, enzyme 0.5 nM: increased by ~100-fold relative to the S/B for both Ub-AMC and Ub-Rhodamine110
